target: NANOG, endogenous in breast cell lysates (UniProt Q9H9S0); experiment: cell-based or functional assay

Substance | sphere initiation frequency (limiting dilution sphere-forming assay, MDA-MB-231 parental cells)
GFP-tagged D66H mutant Cx26 (from UniProt P29033 1-226) | 77.8 1 in n cells
GFP-tagged G59A mutant Cx26 (from UniProt P29033 1-226) | 78.4 1 in n cells
GFP-tagged wild-type Cx26 (from UniProt P29033 1-226) | 31.6 1 in n cells

Source: patent US20190352367A1
